“And” between values parts separate entries of the source, which are not always exact repeats. Equal values may be shown once. The entries are a selection whose mix differs from that of the whole data set. Results filed as inconclusive are left out. The source made the active and inactive calls. Calls follow the shape of the dose curve; as a rule, active = well fitted inhibition curve with a large enough effect in the polarisation, with a control signal flat (not every such curve was filed as active); inconclusive = small, poorly fitted or top-dose-only effect, or effect the other way, or a change in a side signal; inactive = no such curve, though single readings can be large or run the other way; the % refers to the polarisation.
Molecular target: Menin (Homo sapiens) (UniProt O00255)
Assay: qHTS Assay for Inhibitors Targeting the Menin-MLL Interaction in MLL Related Leukemias: Competition With Texas Red Labeled MLL-derived Mutant Peptide; also: % of control where 0% means no effect
Conditions: fluorescence polarization
[1] = at 61.6 µM (top of the series) unless noted

By UniProt entry, the sequences of proteins in these tests, tags left out.
UniProt O00255, whole entry, looked up: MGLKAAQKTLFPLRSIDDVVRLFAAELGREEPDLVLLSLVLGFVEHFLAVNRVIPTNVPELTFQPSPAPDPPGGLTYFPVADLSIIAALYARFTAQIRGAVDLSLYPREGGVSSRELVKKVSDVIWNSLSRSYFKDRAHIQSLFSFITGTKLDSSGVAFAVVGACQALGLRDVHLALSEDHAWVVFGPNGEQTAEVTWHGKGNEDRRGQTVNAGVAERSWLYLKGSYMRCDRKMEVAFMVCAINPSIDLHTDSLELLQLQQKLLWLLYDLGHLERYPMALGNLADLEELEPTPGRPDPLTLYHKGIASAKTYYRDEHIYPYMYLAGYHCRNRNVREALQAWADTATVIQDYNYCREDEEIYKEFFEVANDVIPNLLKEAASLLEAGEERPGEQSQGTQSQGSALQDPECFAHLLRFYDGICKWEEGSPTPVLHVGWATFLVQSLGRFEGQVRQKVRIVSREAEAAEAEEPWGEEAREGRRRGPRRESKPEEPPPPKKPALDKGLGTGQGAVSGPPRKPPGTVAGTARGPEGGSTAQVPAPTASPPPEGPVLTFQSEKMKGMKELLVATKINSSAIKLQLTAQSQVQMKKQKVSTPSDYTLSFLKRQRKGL

O=[N+]([O-])c1ncn(CCn2ncnc2[N+](=O)[O-])n1
FP activity change, negative = inhibition [1]: inactive: -2.16%

O=C(O)CNc1ccc([As](=O)(O)O)cc1
FP activity change, negative = inhibition [1]: inactive: -8.22%

O=C(Nc1cc([As](=O)(O)O)ccc1O)c1ccccc1
FP activity change, negative = inhibition [1]: inactive: 14.5%

CCN(/C(=N/P(=O)(N1CCOCC1)N1CCOCC1)N1CCOCC1)c1ccc(OC)cc1
FP activity change, negative = inhibition [1]: inactive: -15.3%

CN(C)C(=O)OCCc1n(C)cc[n+]1C
FP activity change, negative = inhibition [1]: inactive: -3.52%

CC(C)=N/N=C(\N)N[N+](=O)[O-]
FP activity change, negative = inhibition [1]: inactive: 19.9%

CC(=O)C1=CCCC2CCC1N2 (stereo not drawn)
FP activity change, negative = inhibition [1]: inactive: 2.77%

COc1ccc(C2=NCC(CBr)S2)cc1 (stereo not drawn)
FP activity change, negative = inhibition [1]: inactive: -12.1%

CC(=O)N1C2C3N(C(C)=O)C1C1N(C(C)=O)C(C(N1C(C)=O)N3C(C)=O)N2C(C)=O
FP activity change, negative = inhibition [1]: inactive: 16.6%

O=[N+]([O-])c1cccc2n[nH]nc12
FP activity change, negative = inhibition [1]: inactive: 1.76%

CCc1nc2c(n1)c1c(non1O)c1c2no[n+]1[O-]
FP activity change, negative = inhibition [1]: inactive: -2.44%

Cc1ccc(NP(=O)(Oc2ccccc2)Oc2ccccc2)nc1
FP activity change, negative = inhibition [1]: inactive: -23.6%

O=C(NC(Sc1ccncn1)C(Cl)(Cl)Cl)c1ccccc1 (stereo not drawn)
FP activity change, negative = inhibition [1]: inactive: 0.497%

Cc1c2non([O-])c-2c(C)[n+](=O)[n+]1[O-]
FP activity change, negative = inhibition [1]: inactive: -9.56%

Oc1ccccc1CNc1ccccn1
FP activity change, negative = inhibition [1]: inactive: 2.67%

NC(=O)c1cc([N+](=O)[O-])cc([N+](=O)[O-])c1N
FP activity change, negative = inhibition [1]: inactive: -2.84%

Cc1ccc(N/C(=N/P(=O)(N2CCOCC2)N2CCOCC2)N2CCOCC2)cc1
FP activity change, negative = inhibition [1]: inactive: 0.597%

COc1ccccc1OP(=O)(Nc1ccc(C)cn1)Oc1ccccc1OC
FP activity change, negative = inhibition [1]: inactive: -12%

CN1CCCC(OC(=O)C(c2ccccc2)c2ccccc2)C1 (stereo not drawn)
FP activity change, negative = inhibition [1]: inactive: 13.6%

Clc1ccc(Cl)c(NC2=NCC(CBr)S2)c1 (stereo not drawn)
FP activity change, negative = inhibition [1]: inactive: 3.95%

CCN(N=Nc1nonc1N)c1nonc1N
FP activity change, negative = inhibition [1]: inactive: 9.18%

CC(=O)Nc1ccc([As](=O)(O)O)cc1
FP activity change, negative = inhibition [1]: inactive: -7.25%

O=C(O)c1ccccc1[As](=O)(O)O
FP activity change, negative = inhibition [1]: inactive: -7.29%

CN(C(=O)Cc1ccc(Cl)c(Cl)c1)[C@H]1CCCC[C@@H]1N1CCCC1
FP activity change, negative = inhibition (at 24.8 µM (top of the series)): inactive: -0.394% and inactive: -2.22% and inactive: -10.9%
FP activity change, negative = inhibition (at 61.6 µM (top of the series)): inactive: -26.4% and inactive: -10% and inactive: -0.759%

Cc1cc(SC(NC(=O)c2ccc(F)cc2)C(Cl)(Cl)Cl)ncn1 (stereo not drawn)
FP activity change, negative = inhibition [1]: inactive: 10.4%

CCOP(=O)(Nc1ccccc1)OCC
FP activity change, negative = inhibition [1]: inactive: -6.28%

CC(=O)NC(SC(=S)N(CC(C)C)CC(C)C)C(Cl)(Cl)Cl (stereo not drawn)
FP activity change, negative = inhibition [1]: inactive: -12.3%

COC(=O)c1cc2c(s1)N=C(c1ccccc1)N(C)P2(=O)N1CCOCC1 (stereo not drawn)
FP activity change, negative = inhibition [1]: inactive: -20%

CCC(=O)N1C2C3N(C(=O)CC)C1C1N(C(=O)CC)C(C(N1C(=O)CC)N3C(=O)CC)N2C(=O)CC
FP activity change, negative = inhibition [1]: inactive: 13.2%

O=C(OC1CN2CCC1CC2)c1ccccc1 (stereo not drawn)
FP activity change, negative = inhibition [1]: inactive: -3.29% and inactive: -1.64%

CN(C(=O)Cc1ccc(Cl)c(Cl)c1)[C@@H]1CCCC[C@@H]1N1CCCC1
FP activity change, negative = inhibition [1]: inactive: 7.16%

O=C(NC1CCS(=O)(=O)C1)NP(=S)(Oc1ccccc1)Oc1ccccc1 (stereo not drawn)
FP activity change, negative = inhibition [1]: inactive: 24.1%

CCNC(=S)/N=C(\N)N[N+](=O)[O-]
FP activity change, negative = inhibition [1]: inactive: -12.5%

CCOC(=O)NC(Sc1ccccc1)C(Cl)(Cl)Cl (stereo not drawn)
FP activity change, negative = inhibition [1]: inactive: -19.1%

c1ccc(-c2nn[nH]n2)c(-c2nn[nH]n2)c1
FP activity change, negative = inhibition [1]: inactive: 30.3%

CC(=O)c1ccc(N2CC2c2ccncc2)cc1 (stereo not drawn)
FP activity change, negative = inhibition [1]: inactive: 2.28%

O=P1(Nc2nc3ccc(Cl)cc3s2)COc2ccccc2O1 (stereo not drawn)
FP activity change, negative = inhibition [1]: inactive: 18.1%

CC(C)(C)C(=O)NC(Sc1ccccc1)C(Cl)(Cl)Cl (stereo not drawn)
FP activity change, negative = inhibition [1]: inactive: -15.6%

O=P(Nc1nccs1)(c1ccccc1)c1ccccc1
FP activity change, negative = inhibition [1]: inactive: -0.445%

CC(C)C(=O)NC(Sc1ccccc1)C(Cl)(Cl)Cl (stereo not drawn)
FP activity change, negative = inhibition [1]: inactive: -1.73%

CCC(C)(OOC(C)(C)C)OOC(C)(C)C
FP activity change, negative = inhibition [1]: inactive: 18.7%

CC(=O)NC(SC(=S)N(C)C)C(Cl)(Cl)Cl (stereo not drawn)
FP activity change, negative = inhibition [1]: inactive: 31.3%

C(Cc1nn[nH]n1)Cc1nn[nH]n1
FP activity change, negative = inhibition [1]: inactive: -3.56%

O=C(OC1CN2CCC1CC2)c1cccc(Cl)c1 (stereo not drawn)
FP activity change, negative = inhibition [1]: inactive: -22.8%

CN(C)C1(CNC(=O)c2ccc(Cl)c(S(N)(=O)=O)c2)CCCCC1
FP activity change, negative = inhibition [1]: inactive: -14.8%

O=P(Nc1ccccn1)(c1ccc(Br)cc1)c1ccc(Br)cc1
FP activity change, negative = inhibition [1]: inactive: -18.8%

O=P1(Nc2ncccn2)COc2ccccc2OC1
FP activity change, negative = inhibition [1]: inactive: 9.58%

Cc1ccc(OCC(=O)OC2CN3CCC2CC3)cc1 (stereo not drawn)
FP activity change, negative = inhibition [1]: inactive: -6.02%

O=P1(Nc2ccc(Br)cn2)COc2ccccc2OC1
FP activity change, negative = inhibition [1]: inactive: -13.7%

Cc1ccc(C(=O)OC2CN3CCC2CC3)cc1 (stereo not drawn)
FP activity change, negative = inhibition [1]: inactive: 2.77%

Cc1nn(-c2ccccc2)c2c1P(=O)(N1CCOCC1)N(C)C(c1ccccc1)=N2 (stereo not drawn)
FP activity change, negative = inhibition [1]: inactive: -20.3%

CN(C)C1(CNC(=O)c2ccc(S(C)(=O)=O)cc2)CCCCC1
FP activity change, negative = inhibition [1]: inactive: 0.812%

O=[As](O)(c1ccccc1Br)c1ccccc1Br
FP activity change, negative = inhibition [1]: inactive: -0.815%

CN(C(=O)Cc1ccc(Cl)c(Cl)c1)[C@@H]1CCCC[C@H]1N1CCCC1
FP activity change, negative = inhibition [1]: inactive: 1.11% and inactive: -13.5%

CC(C)/C=N\N=C(\N)N[N+](=O)[O-]
FP activity change, negative = inhibition [1]: inactive: 0.313%

CCOP(=O)(Nc1ccc(C)cn1)OCC
FP activity change, negative = inhibition [1]: inactive: 1.8%

CN(CCCl)Cc1cc(Cl)c(NC2=NCCN2)c(Cl)c1
FP activity change, negative = inhibition [1]: inactive: -2.74%

CCC1=CC2Cc3nc4ccc(Cl)cc4c(N)c3C(C1)C2 (stereo not drawn)
FP activity change, negative = inhibition [1]: inactive: -1.05%

O=P1(Nc2ccccn2)COc2ccccc2OC1
FP activity change, negative = inhibition [1]: inactive: 12.7%

Clc1n[nH]nc1-c1nn[nH][15n]1
FP activity change, negative = inhibition [1]: inactive: 7.88%

CCCOP(=S)(Nc1nc(N)cc(=O)[nH]1)OCCC
FP activity change, negative = inhibition [1]: inactive: 59.9%

CCOP(=O)(Nc1cccc2ccccc12)OCC
FP activity change, negative = inhibition [1]: inactive: 0.158%

COc1cc(C2NCCC3(OCCO3)C2(C)C)cc(OC)c1OC (stereo not drawn)
FP activity change, negative = inhibition [1]: inactive: -4.78%

COc1cc(C(=O)NCC2(N3CCOCC3)CCCCC2)cc(Cl)c1OC(C)C
FP activity change, negative = inhibition [1]: inactive: -15.3%

CN(C(=O)Cc1ccc(Cl)c(Cl)c1)[C@@H]1CC[C@]2(CCCO2)C[C@H]1N1CCCC1
FP activity change, negative = inhibition [1]: inactive: -10.5%

Cc1cccc(OCC(=O)OC2CN3CCC2CC3)c1 (stereo not drawn)
FP activity change, negative = inhibition [1]: inactive: 11.5%

O=[N+]([O-])CC(O)c1ccc([N+](=O)[O-])cc1 (stereo not drawn)
FP activity change, negative = inhibition [1]: inactive: 9.19%

NC(=O)Nc1ccc([As](=O)(O)O)cc1
FP activity change, negative = inhibition [1]: inactive: -0.0325% [at 24.8 µM]

O=[N+]([O-])c1ccc2c(c1)nnn2O
FP activity change, negative = inhibition [1]: inactive: 0.432%

CCOP1(=S)c2c(C)nn(CCC#N)c2N=C(c2ccc(F)cc2)N1C (stereo not drawn)
FP activity change, negative = inhibition [1]: inactive: 6.12%

O=P(Nc1nccs1)(c1ccccc1)c1nc2ccccc2s1 (stereo not drawn)
FP activity change, negative = inhibition [1]: inactive: -15.9%

CCOP1(=S)c2c(C)nn(CCC#N)c2N=C(c2ccccc2F)N1C (stereo not drawn)
FP activity change, negative = inhibition [1]: inactive: -15.3%

ClCCSc1nnc(-c2cccnc2)o1
FP activity change, negative = inhibition [1]: inactive: -27.1%

CC(C)NC(=O)NP(=O)(Oc1ccccc1)Oc1ccccc1
FP activity change, negative = inhibition [1]: inactive: -7.18%

CCN(CC)C(=S)SC(NC=O)C(Cl)(Cl)Cl (stereo not drawn)
FP activity change, negative = inhibition [1]: inactive: -3.02%

C[As](=O)(O)c1cccc(C(=O)O)c1
FP activity change, negative = inhibition [1]: inactive: 12.6%

Cc1ccc2nc3c(c(C)c2c1)CC(C(Cl)Cl)S3 (stereo not drawn)
FP activity change, negative = inhibition [1]: inactive: -6.43%

Cc1ccc(OP(=O)(Nc2ccc([N+](=O)[O-])cn2)Oc2ccc(C)cc2)cc1
FP activity change, negative = inhibition [1]: inactive: -1.92%

Cc1cc(=O)[nH]c(N[N+](=O)[O-])n1
FP activity change, negative = inhibition [1]: inactive: -27.4%

O=C(OC1CN2CCC1CC2)C12CC3CC(CC(C3)C1)C2 (stereo not drawn)
FP activity change, negative = inhibition [1]: inactive: -0.255% [at 11.7 µM]

Cc1c2c(nc3ccccc13)SC(C(Cl)Cl)C2 (stereo not drawn)
FP activity change, negative = inhibition [1]: inactive: 12%

COc1ccc2nc(NP(=O)(c3ccccc3)c3ccccc3)sc2c1
FP activity change, negative = inhibition [1]: inactive: -1.89%

O=C(OC1CN2CCC1CC2)c1cccc([N+](=O)[O-])c1 (stereo not drawn)
FP activity change, negative = inhibition [1]: inactive: 35.3%

CCC(C)N(CC(C)C)C(=S)SC(NC(C)=O)C(Cl)(Cl)Cl (stereo not drawn)
FP activity change, negative = inhibition [1]: inactive: -1.73%

COP1(=S)c2c(C)nn(CCC#N)c2N=C(c2ccc(F)cc2)N1C (stereo not drawn)
FP activity change, negative = inhibition [1]: inactive: -9.28%

O=C(Nc1ccncc1[N+](=O)[O-])c1ccc([N+](=O)[O-])cc1[N+](=O)[O-]
FP activity change, negative = inhibition [1]: inactive: 11.7%

O=C(COc1ccccc1)OC1CN2CCC1CC2 (stereo not drawn)
FP activity change, negative = inhibition [1]: inactive: 9.89%

CCOC(=O)Nc1cccc([As](=O)(O)O)c1
FP activity change, negative = inhibition [1]: inactive: 19%

Cc1cc(SC(NC=O)C(Cl)(Cl)Cl)ncn1 (stereo not drawn)
FP activity change, negative = inhibition [1]: inactive: -7.57%

O=P(Nc1ccccn1)(c1cccc2ccccc12)c1cccc2ccccc12
FP activity change, negative = inhibition [1]: inactive: -17.7%

Cc1cc(SC(NC(=O)c2ccccc2)C(Cl)(Cl)Cl)nc(C(C)C)n1 (stereo not drawn)
FP activity change, negative = inhibition [1]: inactive: -25%

CCCCOc1ccc(C(=O)NCC2(N3CCCCC3)CCCCC2)cc1OC
FP activity change, negative = inhibition [1]: inactive: -15%

Source: PubChem BioAssay AID1768 (National Center for Advancing Translational Sciences (NCATS), 2009)
